Results published in patent US20250346630A1, “Engineering Peptides Using Peptide Epitope Linker Evolution” (AGENCY FOR SCIENCE, TECHNOLOGY AND RESEARCH, priority 2022, published 2025).

The chains behind the UniProt entries cited, without tags or fusion partners. Residues count along the entry.
full-length human eIF4E (human), P06730, UniProt P06730, 2-217: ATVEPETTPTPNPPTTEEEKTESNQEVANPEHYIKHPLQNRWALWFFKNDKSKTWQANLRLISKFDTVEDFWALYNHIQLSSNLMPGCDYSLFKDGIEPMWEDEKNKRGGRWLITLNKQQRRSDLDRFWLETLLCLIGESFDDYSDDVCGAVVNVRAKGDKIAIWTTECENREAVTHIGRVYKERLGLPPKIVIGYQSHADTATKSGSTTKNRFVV

Target: full-length human eIF4E (human), P06730
Test: competitive fluorescence anisotropy, displacement of m7GTP^FAM from eIF4E (apparent Kd); m^7GTP^FAM tracer: competition at the cap-binding site
Conditions: remark: other sources report otherwise

B1: EE-08 (peptide)
peptide: ACETGFYKTCG
modifications: here or on the partner: disulphide between the two Cys; C-terminal amide; N-terminus printed NH2- (methods: all peptides N-acetylated)
Work on B1 yielded a Kd of 16.7 µM.

B2: EE-01 (peptide)
peptide: ACETGFFTGCG
modifications: here or on the partner: disulphide between the two Cys; C-terminal amide; N-terminus printed NH2- (methods: all peptides N-acetylated)
With B2 the Kd was 15 µM.
